We go through 1 molecule from patent US7875618B2, “Substituted imidazo[1,5-a]quinoxalines useful as inhibitors of phosphodiesterase 10 for the treatment of neurological and other disorders” (Wyeth, priority 2007, dated 2011).

Protein sequences, listed by entry. Tags and fused reporters are not part of them. Residues count along the entry.
UniProt Q9Y233, 1-779 isoform 1: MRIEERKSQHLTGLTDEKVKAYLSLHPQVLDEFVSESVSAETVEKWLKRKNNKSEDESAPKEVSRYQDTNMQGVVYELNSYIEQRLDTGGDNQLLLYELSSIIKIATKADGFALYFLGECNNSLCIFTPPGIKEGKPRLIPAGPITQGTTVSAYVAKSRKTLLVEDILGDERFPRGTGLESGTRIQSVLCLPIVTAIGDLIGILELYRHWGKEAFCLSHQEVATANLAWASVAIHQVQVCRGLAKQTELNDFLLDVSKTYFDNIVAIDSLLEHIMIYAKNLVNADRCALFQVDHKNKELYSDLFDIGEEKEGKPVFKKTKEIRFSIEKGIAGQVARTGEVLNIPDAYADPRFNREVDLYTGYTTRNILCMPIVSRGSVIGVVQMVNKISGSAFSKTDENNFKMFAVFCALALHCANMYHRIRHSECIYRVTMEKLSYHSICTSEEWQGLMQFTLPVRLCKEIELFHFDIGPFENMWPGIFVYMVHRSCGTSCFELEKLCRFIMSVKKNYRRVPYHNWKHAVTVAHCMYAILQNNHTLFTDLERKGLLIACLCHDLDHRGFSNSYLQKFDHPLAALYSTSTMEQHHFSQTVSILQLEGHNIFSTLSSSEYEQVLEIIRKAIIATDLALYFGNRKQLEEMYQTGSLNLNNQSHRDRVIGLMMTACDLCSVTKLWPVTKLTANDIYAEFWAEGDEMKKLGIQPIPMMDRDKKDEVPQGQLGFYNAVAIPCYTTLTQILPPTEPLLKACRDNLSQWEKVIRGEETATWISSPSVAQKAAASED

This experiment has as its target human recombinant PDE10A (Homo sapiens, UniProt Q9Y233). In words: Inhibition of human recombinant PDE10A ([3H]-cAMP SPA, Method B). Format: biochemical. The settings on record: read-out: PDE10 inhibition IC50 [nM] PDE10A human.

Structures are written as SMILES.

Regarding `CCCc1nc(C)c2c(Cl)nc3ccc(OCC4CC4)cc3n12`, the IC50 – broadly, the point on the concentration scale where inhibition reaches its midpoint – is 10 to 100 nM.
